The target of experiment [1] is Recombinant human ROS1 kinase (residues 1883-2347) (Homo sapiens, UniProt P08922).
The next experiment addresses T1, recombinant human Trx (Homo sapiens, UniProt P10599).
T1 sequence (P10599 1-105): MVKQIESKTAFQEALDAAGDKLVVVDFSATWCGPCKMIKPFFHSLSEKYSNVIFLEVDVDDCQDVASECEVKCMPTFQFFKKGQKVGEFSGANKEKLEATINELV
The following applies: 10 mM, 37° C., 4 to 6 hours.

By UniProt entry, the sequences of proteins in these tests, tags left out. Residues count along the entry.
UniProt P08922, 1883-2347: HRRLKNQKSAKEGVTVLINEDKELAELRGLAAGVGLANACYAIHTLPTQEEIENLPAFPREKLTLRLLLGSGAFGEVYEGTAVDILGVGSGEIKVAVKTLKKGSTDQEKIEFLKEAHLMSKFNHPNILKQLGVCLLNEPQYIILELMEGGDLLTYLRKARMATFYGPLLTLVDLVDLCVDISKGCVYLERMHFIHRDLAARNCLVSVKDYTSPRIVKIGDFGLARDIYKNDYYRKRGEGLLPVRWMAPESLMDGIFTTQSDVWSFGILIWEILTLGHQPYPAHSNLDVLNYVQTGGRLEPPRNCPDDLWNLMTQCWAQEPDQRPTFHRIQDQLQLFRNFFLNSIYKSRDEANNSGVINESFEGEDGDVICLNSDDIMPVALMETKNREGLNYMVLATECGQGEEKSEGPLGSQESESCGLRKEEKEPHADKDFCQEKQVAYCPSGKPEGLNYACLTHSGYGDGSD

We go through 3 molecules from patent publication US20170007561A1, “CONTEMPORANEOUS, HETEROGENEOUSLY-ORIENTED, MULTI-TARGETED THERAPEUTIC MODIFICATION AND/OR MODULATION OF DISEASE BY ADMINISTRATION OF SULFUR-CONTAINING, AMINO ACID-SPECIFIC SMALL MOLECULES” (BioNumerik Pharmaceuticals, Inc., priority 2014, published 2017).

Regarding `O=S(=O)([O-])CCSSCCS(=O)(=O)[O-].[Na+].[Na+]` [Tavocept, disodium 2,2′-dithio-bis-ethane sulfonate], in experiment [1] (ROS1 incubated with Tavocept 3 hours or 24 hours prior to addition of ATP and polyGT), the “effect on ROS1 kinase activity” value is given as “time-dependent loss of activity”. Moreover, the “effect on crizotinib-mediated inhibition of ROS1 kinase activity” value in experiment [1] (Tavocept incubated with ROS1 for 3 or 24 hours prior to crizotinib, ATP and polyGT, 100 μM ATP, listed as BNP7787) was “additive effect”. For `N[C@@H](CCC(=O)N[C@@H](CS)C(=O)NCC(=O)O)C(=O)O` [glutathione, γ-glutamyl-cysteinyl-glycine, reference compound], the “Adduct on Trx identified by LC MS” value at recombinant human Trx is recorded as “glutathionylated at cysteine-73 (Cys73)”. On the same count and under the same terms, the value for `O=S(=O)([O-])CCS.[Na+]` [mesna, 2-mercapto ethane sulfonate] was “mesna adduct on Cys73 of Trx”.
